Test results from patent publication US20260070899A1, “N-(2-(4-CYANOTHIAZOLIDIN-3-YL)-2-OXOETHYL)-QUINOLINE-4-CARBOXAMIDES” (AstraZeneca AB, priority 2022, published 2026).

Molecular target: T1, human Fibroblast activation protein alpha (hFAP) (Homo sapiens, UniProt Q12884)
T1 construct: Proteros, 38-760 (PR-0071); purchased Proteros PR-0071
T1 sequence (Q12884 38-760): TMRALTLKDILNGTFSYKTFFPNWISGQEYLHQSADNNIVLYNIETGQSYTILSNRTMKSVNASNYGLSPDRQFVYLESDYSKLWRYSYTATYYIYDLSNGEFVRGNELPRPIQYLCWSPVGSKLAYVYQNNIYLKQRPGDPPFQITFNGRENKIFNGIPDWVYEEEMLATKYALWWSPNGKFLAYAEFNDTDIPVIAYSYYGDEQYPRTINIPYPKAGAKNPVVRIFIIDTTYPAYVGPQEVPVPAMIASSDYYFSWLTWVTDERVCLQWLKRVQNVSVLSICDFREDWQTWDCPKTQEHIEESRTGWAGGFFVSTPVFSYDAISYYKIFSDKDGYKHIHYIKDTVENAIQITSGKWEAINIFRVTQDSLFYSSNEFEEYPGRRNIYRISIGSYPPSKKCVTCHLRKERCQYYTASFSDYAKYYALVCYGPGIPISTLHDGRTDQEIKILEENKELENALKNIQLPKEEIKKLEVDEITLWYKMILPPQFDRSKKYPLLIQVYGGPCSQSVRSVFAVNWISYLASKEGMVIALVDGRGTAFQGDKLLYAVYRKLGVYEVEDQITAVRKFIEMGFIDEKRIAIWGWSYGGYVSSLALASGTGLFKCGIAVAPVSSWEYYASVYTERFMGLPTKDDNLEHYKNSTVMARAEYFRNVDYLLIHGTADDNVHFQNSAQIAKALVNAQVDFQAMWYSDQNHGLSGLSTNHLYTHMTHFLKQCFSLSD
Experiment: hFAP inhibition assay (tight binders)
Type: biochemical
Conditions: Ala-Pro-AMC 20 μM, n = 1 or geometric mean (n = 2-5)
Method: Data were analyzed in Genedata Screener®.

SMILES: N#C[C@@H]1CSCN1C(=O)CNC(=O)c1ccnc2ccc(C3COCCO3)cc12 (mixture of isomers) [Example 33, N-(2-((R)-4-Cyanothiazolidin-3-yl)-2-oxoethyl)-6-((RS)-1,4-dioxan-2-yl)quinoline-4-carboxamide]
- IC50: 0.2 nM

SMILES: CCCOc1ccc2nccc(C(=O)NCC(=O)N3CSC[C@H]3C#N)c2c1 [Example 73, (R)—N-(2-(4-Cyanothiazolidin-3-yl)-2-oxoethyl)-6-propoxyquinoline-4-carboxamide]
- IC50: 0.042 nM

SMILES: N#C[C@@H]1CSCN1C(=O)CNC(=O)c1ccnc2ccc(OCC3CC(F)(F)C3)cc12 [Example 8, (R)—N-(2-(4-Cyanothiazolidin-3-yl)-2-oxoethyl)-6-((3,3-difluorocyclobutyl)methoxy)quinoline-4-carboxamide]
- IC50: 0.12 nM

SMILES: CC1(C)CC(c2ccc3nccc(C(=O)NCC(=O)N4CSC[C@H]4C#N)c3c2)CO1 (mixture of isomers) [Example 61, N-(2-((R)-4-Cyanothiazolidin-3-yl)-2-oxoethyl)-6-(5,5-dimethyltetrahydrofuran-3-yl)quinoline-4-carboxamide]
- IC50: 0.25 nM

SMILES: N#C[C@@H]1CSCN1C(=O)CNC(=O)c1ccnc2ccc(COC3CCOC3)cc12 (mixture of isomers) [Example 35, N-(2-((R)-4-Cyanothiazolidin-3-yl)-2-oxoethyl)-6-((((RS)-tetrahydrofuran-3-yl)oxy)methyl)quinoline-4-carboxamide]
- IC50: 0.26 nM

SMILES: Cc1cc(Cc2ccc3nccc(C(=O)NCC(=O)N4CSC[C@H]4C#N)c3c2)n(C)n1 [Example 40, (R)—N-(2-(4-Cyanothiazolidin-3-yl)-2-oxoethyl)-6-((1,3-dimethyl-1H-pyrazol-5-yl)methyl)quinoline-4-carboxamide]
- IC50: 0.063 nM

SMILES: Cc1cc(C2(c3ccc4nccc(C(=O)NCC(=O)N5CSC[C@H]5C#N)c4c3)CC2)no1 [Example 45, (R)—N-(2-(4-Cyanothiazolidin-3-yl)-2-oxoethyl)-6-(1-(5-methylisoxazol-3-yl)cyclopropyl)quinoline-4-carboxamide]
- IC50: 0.12 nM

SMILES: N#C[C@@H]1CSCN1C(=O)CNC(=O)c1ccnc2ccc([C@H]3CC[C@H](C#N)CC3)cc12 (single isomer, unassigned) [Example 54, 6-((1r,4R*)-4-Cyanocyclohexyl)-N-(2-((R)-4-cyanothiazolidin-3-yl)-2-oxoethyl)quinoline-4-carboxamide]
- IC50: 0.041 nM
